In ChEMBL document CHEMBL1137012, “Structural optimization and biological evaluation of 2-substituted 5-hydroxyindole-3-carboxylates as potent inhibitors of human 5-lipoxygenase” (J Med Chem, 2009) one finds IC50 data, which are given here for 12 compounds.

The term IC50 denotes the point on the concentration scale where inhibition reaches its midpoint.

For experiment [1], the target named is T1, Polyunsaturated fatty acid 5-lipoxygenase (Homo sapiens, UniProt P09917).
T1 sequence (P09917 whole entry): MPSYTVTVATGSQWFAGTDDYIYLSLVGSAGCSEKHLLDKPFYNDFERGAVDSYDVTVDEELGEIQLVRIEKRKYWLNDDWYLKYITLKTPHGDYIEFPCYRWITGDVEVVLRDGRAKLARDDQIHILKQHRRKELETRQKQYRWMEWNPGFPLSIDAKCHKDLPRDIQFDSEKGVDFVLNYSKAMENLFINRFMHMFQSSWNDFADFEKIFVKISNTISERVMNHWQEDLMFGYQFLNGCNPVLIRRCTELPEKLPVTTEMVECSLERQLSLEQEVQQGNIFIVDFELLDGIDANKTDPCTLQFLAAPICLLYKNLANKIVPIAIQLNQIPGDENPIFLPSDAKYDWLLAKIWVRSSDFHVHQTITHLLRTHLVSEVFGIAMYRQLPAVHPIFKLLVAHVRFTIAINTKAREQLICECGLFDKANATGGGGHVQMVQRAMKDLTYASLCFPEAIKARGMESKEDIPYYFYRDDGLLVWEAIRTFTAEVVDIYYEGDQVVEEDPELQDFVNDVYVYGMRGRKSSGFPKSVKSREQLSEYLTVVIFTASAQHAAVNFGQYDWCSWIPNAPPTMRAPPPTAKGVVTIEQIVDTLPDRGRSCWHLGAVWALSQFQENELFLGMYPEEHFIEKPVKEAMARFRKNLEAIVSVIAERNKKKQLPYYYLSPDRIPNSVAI
Kind of experiment: Inhibition of human recombinant 5-lipoxygenase expressed in Escherichia coli assessed as 5LO product formation by cell free assay.

Experiment [2] concerns the target T1, Polyunsaturated fatty acid 5-lipoxygenase. Kind of experiment: Inhibition of 5-lipoxygenase in A-23817-challenged human neutrophils assessed as 5LO product formation by intact cell based assay in presence of exogenous arachidonic acid.

A value given as a limit tells only on which side of the number the result lay.

For `CCOC(=O)c1c(Cc2ccc(Cl)cc2)n(Cc2ccccc2)c2c1cc(O)c1ccccc12`, the figures for the IC50 in experiment [1] and in experiment [2] were 650 nM and 1800 nM, respectively.
As to `C=CCN(CC=C)c1[nH]c2ccccc2c1C(=O)OC`, the results for the IC50 in experiment [1] and in experiment [2] were 6900 nM and 12500 nM, respectively.
With `C=CCNc1[nH]c2ccccc2c1C(=O)OC`, the IC50 in experiment [1] and in experiment [2] was more than 30000 nM in each case.
`CCOC(=O)c1c(CCc2cccc(Cl)c2)[nH]c2c1cc(O)c1ccccc12`: the IC50 turned out to be 31 nM in experiment [1] and 490 nM in experiment [2].
In the case of `CCOC(=O)c1c(Cc2ccc(C(F)(F)F)cc2)[nH]c2c1cc(O)c1ccccc12`, the IC50 in experiment [1] was determined as 250 nM; in experiment [2], 1700 nM.
The matching figures for `COC(=O)c1c(Nc2cccc(F)c2)[nH]c2ccccc12`: 13400 nM and 7900 nM.
Take `CCOC(=O)c1c(Cc2cccc(Cl)c2)[nH]c2cc(-c3ccc(-c4ccccc4)cc3)c(O)cc12`: the IC50 in experiment [1] amounted to 330 nM; in experiment [2], 2800 nM.
Consider `CCOC(=O)c1c(Cc2cccc(Cl)c2)[nH]c2c1cc(-c1ccccc1)c1ccccc12`, for which the IC50 in experiment [1] and in experiment [2] was more than 30000 nM in each case.
For the compound `CCOC(=O)c1c(Cc2cccc(F)c2)[nH]c2c1cc(O)c1ccccc12`, the results for the IC50 in experiment [1] and in experiment [2] were 140 nM and 340 nM, respectively.
The matching figures for `CCOC(=O)c1c(CCc2ccc(Cl)cc2)[nH]c2c1cc(O)c1ccccc12`: 49 nM and 2800 nM.
For `CC(=O)N(O)C(=O)/C=C/c1cccc(Oc2ccccc2)c1` the same measures were 38 nM and 160 nM.
The matching figures for `CCOC(=O)c1c(Cc2cccc(Cl)c2)n(C)c2c1cc(OC)c1ccccc12`: more than 10000 nM and more than 30000 nM.
